These results are taken from patent publication US10875860B2, “Azaindenoisoquinoline compounds and uses thereof” (Purdue Research Foundation, priority 2016, dated 2020).

pIC50: −log10 of the molar value.

For the assay, the target named is T1, recombinant human TDP2 (Homo sapiens, UniProt O95551).
T1 sequence (O95551 1-362): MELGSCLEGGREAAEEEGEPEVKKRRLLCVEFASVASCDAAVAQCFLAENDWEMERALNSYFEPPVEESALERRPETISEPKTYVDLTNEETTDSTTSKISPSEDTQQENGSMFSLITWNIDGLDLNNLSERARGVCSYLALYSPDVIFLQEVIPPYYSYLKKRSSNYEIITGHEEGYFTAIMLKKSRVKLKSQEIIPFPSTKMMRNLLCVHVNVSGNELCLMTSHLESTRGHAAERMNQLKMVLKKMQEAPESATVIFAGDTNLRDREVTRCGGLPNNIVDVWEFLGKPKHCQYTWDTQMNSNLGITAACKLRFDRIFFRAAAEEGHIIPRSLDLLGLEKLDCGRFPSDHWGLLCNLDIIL
Nature of the assay: Recombinant Tdp2 assay. It is filed as biochemical.

As usually defined, the pIC50 is the negative decadic logarithm of the IC50, by convention in mol/L. For the molecule `COc1cnc2c(c1)C(=O)c1c-2n(CCCN2CCCC2)c(=O)c2cc(Cl)ccc12` [Compound 16i, 3-Chloro-9-methoxy-6-(3-(pyrrolidin-1-yl)propyl)-5H-pyrido[3′,2′:4,5]cyclopenta[1,2-c]isoquinoline-5,11(6H)-dione], the pIC50 was less than 3.95.
